Measured values: patent publication EP4772509A1, “KINESIN KIF18A INHIBITOR, AND APPLICATION THEREOF” (Shanghai Apeiron Therapeutics Company Limited, priority 2023, dated 2025)

Biological target: T1, Human KIF18A (amino acid sequence 1-417) (Homo sapiens, UniProt Q8NI77)
T1 construct: purchased Viva Biotech (Shanghai) Ltd
T1 sequence (Q8NI77 1-417): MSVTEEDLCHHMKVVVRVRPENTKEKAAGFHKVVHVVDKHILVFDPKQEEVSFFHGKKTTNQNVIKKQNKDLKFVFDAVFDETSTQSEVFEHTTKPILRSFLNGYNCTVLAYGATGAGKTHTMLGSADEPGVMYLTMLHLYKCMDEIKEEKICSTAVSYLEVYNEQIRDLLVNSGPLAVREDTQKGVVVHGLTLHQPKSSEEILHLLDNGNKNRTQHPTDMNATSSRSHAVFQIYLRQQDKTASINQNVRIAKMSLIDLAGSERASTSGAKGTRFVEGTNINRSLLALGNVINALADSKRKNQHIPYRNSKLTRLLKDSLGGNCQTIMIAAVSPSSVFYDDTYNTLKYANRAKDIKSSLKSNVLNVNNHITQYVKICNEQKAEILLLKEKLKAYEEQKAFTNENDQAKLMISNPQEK
Assay: Enzymatic activity test (ADP-Glo, microtubule-stimulated ATPase)
Assay type: biochemical
Details: KIF18A IC50 nM, 60 µg/mL microtubules, 25 µM ATP, 2.5 nM KIF18A protein, 120 min at ambient temperature, chemiluminescence
Description: Materials: Human KIF18A (amino acid sequence 1-417) was purchased from Viva Biotech (Shanghai) Ltd.; the ADP-Glo™ protein kinase kit was acquired from Promega, USA; tubulin was sourced from Cytoskeleton, USA; and the 384-well assay plate and Envision multifunctional microplate reader were obtained from PerkinElmer, USA.
Enzymatic Activity Test: The compound powder was dissolved in DMSO to prepare a stock solution of 10 mM. Then gradient dilution was performed for the compounds in the microplate to achieve a final concentration of 0-10 µM. Then, 2.5 µL each of tubulin, compound, ATP, and KIF18A protein were added to the microplate in sequence for reaction at ambient temperature for 120 min. The final concentrations in the enzyme reaction were 60 µg/mL for microtubules, 25 µM for ATP, and 2.5 nM for KIF18A protein. After the enzyme reaction, 10 µL of ADP-GLO reaction reagent was added to each well and incubated at room temperature for 30 min. After that, 20 µL of detection reagent was added to each well and incubated at room temperature for 30 min in the dark. Finally, chemiluminescence detection was performed using the PerkinElmer Envision.

## Cc1cc2nc(n1)N1CCC(F)(F)C(/C=C/CC3CCN(CC3)c3cc(NS(=O)(=O)CCO)c(C(=O)N(C)C)cc3-n3cc-2nn3)C1 (stereo not shown) [Example 93, (3^4Z,7E)-1^4,1^4-difluoro-4^4-((2-hydroxyethyl)sulfonamido)-2^6-methyl-3^1H-2(2,4)-pyrimidin-1(1,3),5(1,4)-dipiperidin-3(4,1)-triazole-4(1,2)-benzocyclooct-7-en-4^5carboxamide]
  IC50: 45 nM
